Yeast mating assay B: variants of the scFv Ab-14

Values reported by Li et al. 2023, doi:10.1038/s41467-023-39022-2 (FLAb copy).

The target is the same throughout: PDVDLGDISGINAS, from the HR2 region of SARS-CoV-2 spike.

Each scFv is VH, three GGGGS repeats, VL, as in the parent Ab-14, and differs from it in the CDRs of the light chain only.
VH: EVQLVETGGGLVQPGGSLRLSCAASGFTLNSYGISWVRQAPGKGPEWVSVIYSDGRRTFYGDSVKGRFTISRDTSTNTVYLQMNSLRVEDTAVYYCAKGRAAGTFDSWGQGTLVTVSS
VL: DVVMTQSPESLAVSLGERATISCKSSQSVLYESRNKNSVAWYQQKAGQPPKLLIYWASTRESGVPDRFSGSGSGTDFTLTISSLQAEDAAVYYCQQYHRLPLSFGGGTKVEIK

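The parent was found by panning a naive human phage display library on the peptide. The variants were designed computationally from a first round of random CDR variants and then made and measured. Group labels follow the data file (Ctrl: baseline library sampled from a position-specific scoring matrix, with some repeated check sequences; Rand: our label for a block that the file lists under HC and that is probably the random mutants of the ten best first-round binders; En: ensemble of fine-tuned language models; GP: Gaussian process model; HC: hill climbing; Gen: genetic algorithm; Gibbs: Gibbs sampling; a sequence that several methods proposed may carry one label only). AlphaSeq pools MATa yeast showing the antibodies with MATalpha yeast showing the peptide. After mating in shaken culture at 30 °C for 16 h, diploids were selected and their barcode pairs sequenced. Scores were corrected for input abundance and mapped to Kd with protein pairs of known affinity run in the same pool. Each pool was mated in six replicate cultures.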

Each variant is given by its three light chain CDRs, as the data file delimits them; those of the parent are KSSQSVLYESRNKNSVA, WASTRES, QQYHRLPLS. Values are apparent Kd, the geometric mean of the replicates that gave a signal; lower means stronger binding. Where no diploid with the target was found in any replicate, the entry reads "not detected": below detection, most likely a poor binder, though not proof of it. A sequence measured in both rounds can read differently, since the two assays cover different ranges. The authors' rule: three or more of the six replicates give a measured affinity, fewer mean a poor binder. Nonspecific signal, from three strains lacking the peptide, appeared in 4% of pairings of all light chain designs, centred on 430 nM (5% of these signals below 38 nM); values are not corrected for it. For each scFv, signals with the empty controls are counted beside the result.

| CDR-L1 | CDR-L2 | CDR-L3 | group | apparent Kd | seen in | empty controls |
|---|---|---|---|---|---|---|
| HFSQSVPYESRNFNSVA | NASLRFS | QQYHRLPLS | GP_Gibbs | 13 nM | 6 of 6 | 0 of 18 |
| FLSQSVLYEERLDNSVA | NASQRCS | QQYHRLPLS | GP_Gibbs | 4.6 nM | 6 of 6 | 1 of 18 |
| MMSQMFEGLSTAKNPVA | QVSTREE | QQYHRLPLS | En_HC | 4.7 nM | 6 of 6 | 0 of 18 |
| KIGMTLNQLLHKKNNVA | DLVERET | QQYHRLPLS | En_Gen | 1.7 nM | 6 of 6 | 0 of 18 |
| KSSQRVLYESRIKNSVA | WASTRES | QQYHRLPLS | Ctrl | 75 nM | 1 of 6 | 0 of 18 |
| KTYVSHLYESRNKNSVA | QASERES | QQYHRLPLS | GP_Gibbs | 740 pM | 6 of 6 | 3 of 18 |
| KASWSNLYESRNANSVA | NASQRCS | QQYHRLPLS | GP_Gibbs | 680 pM | 6 of 6 | 0 of 18 |
| KLSMITGHMSMSRNNVA | EMVTREN | QQYERLPLS | En_Gen | 2.3 nM | 6 of 6 | 0 of 18 |
| KLREVQHVETKKKNNVA | DNSTRES | QDYYRLPLS | En_HC | not detected | 0 of 6 | 0 of 18 |
| KISQMIRVGSTHGNSIA | EEATRAK | QQYHRLPLF | En_Gen | 15 nM | 5 of 6 | 0 of 18 |
| KVQQSELGGSRNKNSVA | EASTRED | QQYHRLPLS | GP_Gibbs | 1.0 nM | 1 of 6 | 0 of 18 |
| KLSQSVLYESRNKNNVA | DASTRES | QDYHRLPLS | GP_Gen | 470 pM | 6 of 6 | 1 of 18 |
| QSSQSALYESRNKNSVA | GASTRES | QQYHRLPLS | GP_HC | 3.2 nM | 6 of 6 | 0 of 18 |
| KLSQSKGYESRNPNSVA | NASTREL | QQYHRLPLS | GP_Gibbs | 820 pM | 6 of 6 | 1 of 18 |
| KMSQSVLYENRNKNSVA | NASTRES | QQYHRLPLS | Ctrl | 540 pM | 6 of 6 | 1 of 18 |
| KMQQLVWYEQRNKNSVA | DGSTRES | QQYHRLPLS | GP_Gibbs | 510 pM | 6 of 6 | 0 of 18 |
| KLMPSKEYESRMKNSVA | EASVREE | QQYHRLPLS | GP_Gibbs | 3.0 nM | 6 of 6 | 0 of 18 |
| KLSQSVLYESRNKNSVA | GASTRES | QSYHRLPLS | GP_Gen | 670 pM | 6 of 6 | 3 of 18 |
| KLDFLGPYEQRNKNSVA | SASTRES | QQYHRLPLS | GP_Gibbs | 3.5 nM | 6 of 6 | 0 of 18 |
| KSSQSVLYESDNKNSVA | WASTRER | QQYHQLPLS | Ctrl | 17 nM | 6 of 6 | 1 of 18 |
| KIGMTLNQLEHKQNNVA | DLVTREN | QQYHRLPLS | En_Gen | 3.9 nM | 6 of 6 | 5 of 18 |
| KSSQSCWYESRNKNSVA | EASTREK | QQYHRLPLS | Ctrl | 2.1 nM | 6 of 6 | 1 of 18 |
| ALSIQQQENTGIVNSIA | QTSLREH | QQYHHLPLC | En_Gibbs | 3.8 nM | 6 of 6 | 0 of 18 |
| KSSQSVLYESRNKNSVA | WASTRMS | QQYHRLPLS | Ctrl | 8.6 nM | 6 of 6 | 0 of 18 |
| NISESMYYQTRNKNNIA | EMSTRER | QHYHRLPLS | En_HC | 4.1 nM | 6 of 6 | 3 of 18 |
| MVYQAAMMGGVARNSIA | NATMRPD | QQYHRLPLE | En_Gen | 11 nM | 6 of 6 | 0 of 18 |
| KISMTYRYESQEKNSIA | EMTTREE | QSYHRLPLS | En_HC | 38 nM | 6 of 6 | 1 of 18 |
| KISQMVRVGSTHSSSIA | EEQTRAK | QQYHRLPLS | En_Gen | 560 pM | 1 of 6 | 0 of 18 |
| SMIPFDNQIMKGTNNIA | HTSVRAS | QQYARLPLV | En_Gibbs | 4.2 nM | 6 of 6 | 0 of 18 |
| KLSQSVLYESRNGNSVA | NASTRES | QQYHRLPLS | GP_Gen | 630 pM | 6 of 6 | 0 of 18 |
| KLSWSVGYESRNVNNVA | NASTREL | QQYHRLPLS | GP_Gibbs | 600 pM | 6 of 6 | 1 of 18 |
| IVSQLMLWGLHAKNSIA | EAQTRLN | QQYDRLPLF | En_Gen | 3.8 nM | 6 of 6 | 1 of 18 |
| WSSQSVLGESRNKNSVA | AASTREV | QQYHRLPLS | Ctrl | 5.1 nM | 6 of 6 | 3 of 18 |
| KHSESVLYESRNKNSVA | GASTRES | QQYHRLPLS | Ctrl | 1.3 nM | 6 of 6 | 1 of 18 |
| KSLSSVLYESNNKNSVA | HASTRED | QQYHRLPLS | GP_HC | 1.4 nM | 6 of 6 | 1 of 18 |
| TISMFMDNMSHNRNNVA | DTSTLGD | QSYDRLPLS | En_Gen | 13 nM | 6 of 6 | 3 of 18 |
| KSSQSYLYESENKNSVA | EASQRES | QQYHRLPLS | GP_HC | 1.7 nM | 6 of 6 | 1 of 18 |
| KVSQSEDYESRNKNSVA | NASTRES | QQYHRLPLS | GP_Gen | 730 pM | 6 of 6 | 3 of 18 |
| KLTQSVLYESRNKNSVA | HASTRED | QQYHRLPLS | GP_HC | 770 pM | 6 of 6 | 2 of 18 |
| KSSILYLEESRNKNSVA | EASTRES | QQYHRLPLS | GP_HC | 1.9 nM | 6 of 6 | 2 of 18 |
| KLSQSELYMSRNANSVA | NASTRMS | QQYHRLPLS | GP_Gibbs | 1.2 nM | 6 of 6 | 1 of 18 |
| KLPQSELYESRNKNSVA | NASTREV | QQYHRLPLS | GP_Gen | 510 pM | 6 of 6 | 1 of 18 |
| KLSMSMLMESRHKNSVA | ENSTREE | QHYNRLPLS | En_HC | not detected | 0 of 6 | 0 of 18 |
| LISGVWDYGSRNYNSVA | QTSTRED | QQYDRLPLE | En_HC | 13 nM | 6 of 6 | 4 of 18 |
| KLREVNHVESKQKNNVA | DNSTRES | QDYHRLPLS | En_HC | 420 nM | 6 of 6 | 2 of 18 |
| MFPQEVMYEQHFKNNVA | QTSTREN | QQYDMLPLS | En_HC | 3.4 nM | 6 of 6 | 0 of 18 |
| MLSEVLHMLGAKKNSIA | DLVLRAN | QQYHRLPLA | En_Gen | 3.8 nM | 2 of 6 | 0 of 18 |
| MVTQMAMSGMTNKRSVA | NAETRCN | QQYHRLPLI | En_Gen | 340 nM | 2 of 6 | 0 of 18 |
| SMAYFQHFGNQQEKAIA | EVATREQ | QQYFRLPLT | En_Gibbs | 3.8 nM | 6 of 6 | 0 of 18 |
| KITATMRFEQKASNNIA | EVTLRSK | QQYMRLPLS | En_Gen | 32 nM | 6 of 6 | 0 of 18 |
| KSDQSVLYESRNKNSVA | GASTRES | QQYFRLPLS | Ctrl | 1.1 nM | 6 of 6 | 1 of 18 |
| KSSISQLYESRNKNSVA | EASTRES | QQYHRLPLS | GP_HC | 1.4 nM | 6 of 6 | 0 of 18 |
| SLDMREPPYTALSGSVA | GSANRAI | QQYFRLPLS | En_Gibbs | 1.1 nM | 6 of 6 | 0 of 18 |
| MMSQVQGQGTRHRNNVA | QTETREP | QQYDRLPLV | En_Gen | 15 nM | 6 of 6 | 1 of 18 |
| KSSQSVLYESRNKNSVA | WASTRWS | QQPHRLPLS | Ctrl | 22 nM | 1 of 6 | 0 of 18 |
| RISQIIQENVRQYNSVA | NGMTRNA | QHYSRLPLE | En_Gibbs | 82 nM | 6 of 6 | 1 of 18 |
| KLKEWKVDNQTFYSNIA | EADIREL | QQYYRLPLQ | En_Gibbs | 180 nM | 5 of 6 | 1 of 18 |
| QLYAVQDMTSKNSSNVA | EQSTREN | QQYHRLPLS | En_HC | 260 nM | 4 of 6 | 0 of 18 |
| KLSMSVDYMSATHSSVA | QTSTREE | QQYHRLPLI | En_HC | 15 nM | 6 of 6 | 0 of 18 |
| MISQLANMGQFAINSVA | QASLRCN | QQYDRLPLL | En_Gen | 17 nM | 1 of 6 | 0 of 18 |
| KSLQSVLYESRNKNSVA | HASTRED | QQYHRLPFS | Rand | 2.8 nM | 6 of 6 | 3 of 18 |
| KSLQSVLYESRNKNSVA | HASTRED | QQYHRLPLI | GP_HC | 40 nM | 6 of 6 | 0 of 18 |

Excerpt, the final 4 entries:

CDR-L1,CDR-L2,CDR-L3,group,apparent Kd,seen in,empty controls
KLSMSVDYMSATHSSVA,QTSTREE,QQYHRLPLI,En_HC,15 nM,6 of 6,0 of 18
MISQLANMGQFAINSVA,QASLRCN,QQYDRLPLL,En_Gen,17 nM,1 of 6,0 of 18
KSLQSVLYESRNKNSVA,HASTRED,QQYHRLPFS,Rand,2.8 nM,6 of 6,3 of 18
KSLQSVLYESRNKNSVA,HASTRED,QQYHRLPLI,GP_HC,40 nM,6 of 6,0 of 18